# Measured values from US20090298797A1, “COMBINATION THERAPY FOR THE TREATMENT OF INFLUENZA” (priority 2008, published 2009).
# Test system: lung, brain, spleen, kidney and liver tissues
# Assay: Histopathological analysis of tissues of challenged mice (H&E)
# Assay type: in vivo, BALB/c mice
structure (smiles),measurement,setting,value
CC(=O)N[C@H]1[C@H]([C@H](O)[C@H](O)CO)OC(C(=O)O)=C[C@@H]1N=C(N)N [zanamivir],mononuclear cell infiltration in the cerebral cortex (histopathology),"mouse, in vivo",focal mild perivascular mononuclear cell infiltration
same,reactive lymphoid cells with frequent apoptotic bodies in spleen (histopathology),"mouse, in vivo",found
same,alveolar inflammation on histological examination,"surviving mice, day 21 after viral challenge",inflammatory infiltrate
